High-throughput results: PubChem BioAssay, Broad Institute
S100A4 inh HTS: inhibitors of S100A4-myosin IIA peptide binding, primary screen, biochemical, fluorescence polarization, TAMRA-MyoIIA peptide. inhibition, % at 10.7 µM. hit rate 0.14% among 360,000;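 active = mean inhibition of at least 70% across replicates, with every replicate also reaching that level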
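Test system – S100A4 monomer (human) · Compound – single-point compound testing · Schedule – 5 min incubation before reading · Probe or stimulus – TAMRA-labelled myosin IIA heavy-chain peptide probe, 5 nM · Benchmarks – neutral control DMSO, positive control TFP · Medium – Calcium-containing HEPES buffer, pH 7.2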
ERp5 block: inhibitors of ERp5-driven insulin aggregation, primary screen, biochemical, turbidity, absorbance 650 nm, single point. 90 min. inhibition, % at 9.99 µM. hit rate 0.05% among 350,000. AID 651711, 2012;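 active = mean replicate inhibition above about 25%, with every replicate also reaching it, limit read from the data, passing the limit was not always enough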
Yeast UUG start: modulators of yeast start codon fidelity, primary screen, whole organism, S. cerevisiae, single point, plate reader | activity score, % at 18.7 µM | 350,000 tested, 0.13% active | S. cerevisiae UUG-firefly luciferase reporter, luminescence/redox ratio;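 active means replicate mean at a twofold rise or more, about +100% in these data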;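 further: firefly luciferase made from a UUG start codon reports start codon fidelity; reporter light over untreated wells divided by growth signal over untreated wells; some hits fall short of that in this replicate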
FGF22 binding: binders of human FGF22 protein, primary screen, FGF22 synaptogenesis inhibitor project, biophysical, thermal shift, single point. Fibroblast growth factor 22 (Homo sapiens), Q9HCT0. recombinant FGF22 thermal shift, SYPRO orange fluorescence; percent of sucrose octasulfate shift, DMSO zero. activity (Tm shift, normalised), % at 9.99 µM. hit rate 1.5% among 340,000. AID 651658, 2012;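 active = mean Tm shift, scaled 0 neutral to 100 positive control, at about 1.3% or above, every replicate too, limit read from the data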
SIRT5 inh: SIRT5 desuccinylase inhibitors, primary screen, biochemical, fluorescence imaging, single point, set 5; NAD-dependent protein deacylase sirtuin-5, mitochondrial (Homo sapiens), Q9NXA8; Purified SirT5, succinyl-peptide AMC, trypsin-coupled fluorescence; inhibition, % at 15 µM; hit rate 1.1% among 330,000; in the data active = inhibition above about 15%
Active calls of the source: *; nt = not tested or not shown. In the library only some 2.2% were active in any assay of this set; here they are far more common.

Start of the listing, in advance, three compounds:
Second line of a record – S100A4 inh HTS, ERp5 block, Yeast UUG start, FGF22 binding, SIRT5 inh
1) C[C@@H]1CCCCO[C@@H](CN(C)C(=O)C2CCCCC2)[C@H](C)CN([C@@H](C)CO)C(=O)c2cc(NC(=O)Nc3ccc(F)cc3)ccc2O1
 : 6.0, 2.7, -5.6, -0.1, 19.2*
2) COc1ccc(NC(=O)Nc2ccc3c(c2)C(=O)N([C@@H](C)CO)C[C@@H](C)[C@@H](CN(C)CC2CCCCC2)OCCCC[C@H](C)O3)cc1
 : 11.1, 2.9, 4.8, 1.3*, -2.2
3) COc1ccc(NC(=O)Nc2ccc3c(c2)C(=O)N([C@H](C)CO)C[C@H](C)[C@@H](CN(C)CC2CCCCC2)OCCCC[C@@H](C)O3)cc1
 : 14.9, 8.5, -4.2, -0.1, 2.5

This part in full, repeating the preview:
Second line of a record – S100A4 inh HTS, ERp5 block, Yeast UUG start, FGF22 binding, SIRT5 inh
1) C[C@@H]1CCCCO[C@@H](CN(C)C(=O)C2CCCCC2)[C@H](C)CN([C@@H](C)CO)C(=O)c2cc(NC(=O)Nc3ccc(F)cc3)ccc2O1
 : 6.0, 2.7, -5.6, -0.1, 19.2*
2) COc1ccc(NC(=O)Nc2ccc3c(c2)C(=O)N([C@@H](C)CO)C[C@@H](C)[C@@H](CN(C)CC2CCCCC2)OCCCC[C@H](C)O3)cc1
 : 11.1, 2.9, 4.8, 1.3*, -2.2
3) COc1ccc(NC(=O)Nc2ccc3c(c2)C(=O)N([C@H](C)CO)C[C@H](C)[C@@H](CN(C)CC2CCCCC2)OCCCC[C@@H](C)O3)cc1
 : 14.9, 8.5, -4.2, -0.1, 2.5
4) C[C@@H]1CCCCO[C@@H](CN(C)C(=O)Nc2ccc(F)cc2)[C@H](C)CN([C@@H](C)CO)C(=O)c2cc(NC(=O)Nc3ccc(C(F)(F)F)cc3)ccc2O1
 : -29.0, -0.2, -19.3, 1.4*, 2.4
5) CN(C)CC(=O)N[C@H]1C=C[C@@H](CC(=O)O)O[C@@H]1CO
 : -7.7, 4.4, nt, nt, -5.5
6) C[C@@H]1CCCCO[C@H](CN(C)C(=O)Nc2ccc(F)cc2)[C@@H](C)CN([C@H](C)CO)C(=O)c2cc(NC(=O)Nc3ccc(F)cc3)ccc2O1
 : -9.0, -12.3, -13.7, -0.6, 27.1*
7) C[C@@H]1CCCCO[C@H](CN(C)C(=O)Nc2ccc(C(F)(F)F)cc2)[C@H](C)CN([C@@H](C)CO)C(=O)c2cc(NC(=O)Nc3ccc4c(c3)OCO4)ccc2O1
 : 9.5, 7.5, -17.3, -0.1, 15.2*
8) C[C@@H]1CN([C@@H](C)CO)C(=O)c2cc(NC(=O)C3CCCCC3)ccc2O[C@@H](C)CCCCO[C@H]1CN(C)C(=O)c1ccccc1
 : -29.4, -1.8, 10.7, 28.8*, -3.5
9) C[C@@H]1CCCCO[C@H](CN(C)C(=O)NC2CCCCC2)[C@@H](C)CN([C@@H](C)CO)C(=O)c2cc(NC(=O)Nc3ccc(C(F)(F)F)cc3)ccc2O1
 : 142.6*, -4.6, 7.0, -0.7, 1.7
10) C[C@@H]1CCCCO[C@@H](CN(C)C(=O)Nc2ccc(F)cc2)[C@@H](C)CN([C@@H](C)CO)C(=O)c2cc(NC(=O)Nc3ccc(F)cc3)ccc2O1
 : -9.1, 3.5, 0.1, 0.1, 2.8
11) O=C(Cc1ccncc1)NCC[C@H]1CC[C@@H](NC(=O)C2CCCC2)[C@H](CO)O1
 : -0.4, -0.3, -7.5, 0.1, -1.7
12) CCNC(=O)C[C@@H]1C=C[C@@H](NS(=O)(=O)c2ccc(C)cc2)[C@@H](CO)O1
 : 4.7, 0.4, -17.8, 0.0, 0.6
13) COCCNC(=O)C[C@@H]1C[C@@H]2c3cc(NC(=O)c4cccnc4)ccc3O[C@@H]2[C@@H](CO)O1
 : 0.7, 16.1, -10.3, 0.0, -4.2
14) COc1ccc2c3c(n(C)c2c1)[C@H](CO)N(S(C)(=O)=O)CC31CN(C(=O)C2CCCC2)C1
 : 1.0, -4.6, nt, -0.1, -2.6
15) C[C@@H]1CN([C@@H](C)CO)C(=O)c2cc(NC(=O)Nc3ccc(C(F)(F)F)cc3)ccc2O[C@@H](C)CCCCO[C@@H]1CN(C)CC1CCCCC1
 : -4.1, 1.5, 8.7, -1.4, -3.6
16) C[C@@H]1CCCCO[C@H](CN(C)CC2CCCCC2)[C@H](C)CN([C@H](C)CO)C(=O)c2cc(NC(=O)Nc3ccc(C(F)(F)F)cc3)ccc2O1
 : -13.4, 2.7, -0.1, -1.9, 100.0*
17) C[C@@H]1CCCCO[C@@H](CN(C)C(=O)Nc2cccc3ccccc23)[C@H](C)CN([C@@H](C)CO)C(=O)c2cc(NC(=O)Nc3ccc4c(c3)OCO4)ccc2O1
 : 2.5, 4.1, -19.6, nt, -2.3
18) C[C@H](CO)N1C[C@H](C)[C@@H](CN(C)C(=O)C2CCCCC2)OCCCC[C@H](C)Oc2ccc(NC(=O)Nc3ccc4c(c3)OCO4)cc2C1=O
 : -8.2, 7.9, -5.6, -0.5, 16.3*
19) C[C@@H]1CCCCO[C@@H](CN(C)C(=O)C2CCCCC2)[C@H](C)CN([C@@H](C)CO)C(=O)c2cc(NC(=O)c3ccncc3)ccc2O1
 : -12.6, 0.0, -1.6, -0.1, 16.7*
20) C[C@@H]1CN([C@H](C)CO)C(=O)c2cc(NC(=O)Nc3ccc4c(c3)OCO4)ccc2O[C@@H](C)CCCCO[C@@H]1CN(C)C(=O)C1CCCCC1
 : -5.7, 7.8, -9.1, 0.2, 8.7
21) C[C@H](CO)N1C[C@H](C)[C@@H](CN(C)C(=O)Nc2cccc3ccccc23)OCCCC[C@H](C)Oc2ccc(NC(=O)Nc3ccc4c(c3)OCO4)cc2C1=O
 : -19.3, 3.4, -17.0, 1.7*, 4.5
22) CCCNC(=O)Nc1ccc2c(c1)C(=O)N(C)[C@@H]1CC[C@H](CC(=O)O)O[C@@H]1CO2
 : nt, nt, -14.9, 1.0, nt
23) C[C@H]1CCCCO[C@H](CN(C)C(=O)Nc2ccc(F)cc2)[C@@H](C)CN([C@@H](C)CO)C(=O)c2cc(NC(=O)Nc3ccc(C(F)(F)F)cc3)ccc2O1
 : -2.3, -2.1, -15.7, 1.6*, -2.7
24) C[C@@H]1CCCCO[C@@H](CN(C)CC2CCCCC2)[C@H](C)CN([C@@H](C)CO)C(=O)c2cc(NC(=O)Nc3ccc4c(c3)OCO4)ccc2O1
 : -17.3, -17.3, -2.2, 1.4*, 2.0
25) C[C@H]1CCCCO[C@H](CN(C)C(=O)Nc2ccc(C(F)(F)F)cc2)[C@@H](C)CN([C@@H](C)CO)C(=O)c2cc(NC(=O)Nc3ccc(F)cc3)ccc2O1
 : -9.6, -0.3, -16.4, 0.1, 16.8*
26) COc1ccc(NC(=O)N(C)C[C@H]2OCCCC[C@@H](C)Oc3ccc(NC(=O)NC4CCCCC4)cc3C(=O)N([C@H](C)CO)C[C@@H]2C)cc1
 : 134.2*, -2.5, 11.1, -0.7, 4.3
27) C[C@@H]1CCCCO[C@H](CN(C)CC2CCCCC2)[C@H](C)CN([C@H](C)CO)C(=O)c2cc(NC(=O)Nc3ccc4c(c3)OCO4)ccc2O1
 : 14.1, -8.4, 4.9, 0.0, 0.7
28) O=C(Nc1ccccc1)N1C[C@H]2[C@@H](c3ccccc31)[C@H](CO)N2Cc1ccccc1
 : 2.8, -3.3, 2.3, 0.5, -4.4
29) O=C(C[C@@H]1CC[C@H]2[C@@H](COC[C@H](O)CN2CCC(F)(F)F)O1)NCc1ccc(Oc2ccccc2)cc1
 : -8.0, -0.8, -9.0, -0.2, -0.9
30) COc1ccc(NC(=O)Nc2ccc3c(c2)C(=O)N([C@@H](C)CO)C[C@@H](C)[C@H](CN(C)C(=O)Nc2ccc(C(F)(F)F)cc2)OCCCC[C@@H](C)O3)cc1
 : -7.1, 0.6, -22.7, 1.2*, 18.1*
31) C[C@@H]1CN([C@H](C)CO)C(=O)c2cc(NC(=O)Nc3ccc(F)cc3)ccc2O[C@@H](C)CCCCO[C@H]1CN(C)C(=O)c1ccccc1
 : -23.2, 8.1, nt, nt, 5.2
